This is an account of results in PMC10313165, “Imaging single CaMKII holoenzymes at work by high-speed atomic force microscopy” (Science Advances, 2023).

The data set concerns the molecule itself. The experiment in a line: high-speed atomic force microscopy; single holoenzyme particles on mica modified with cationic pillar[5]arene; buffer A (50 mM tris-HCl pH 7.4, 15 mM KCl, 10 mM MgCl2, 10% glycerol) with the additives of each state; 24-26 °C; kinase domains seen around a central hub assembly.

B1: no-linker rat CaMKIIα holoenzyme (enzyme, rat (Rattus norvegicus))
chain: MATITCTRFTEEYQLFEELGKGAFSVVRRCVKVLAGQEYAAKIINTKKLSARDHQKLEREARICRLLKHPNIVRLHDSISEEGHHYLIFDLVTGGELFEDIVAREYYSEADASHCIQQILEAVLHCHQMGVVHRDLKPENLLLASKLKGAAVKLADFGLAIEVEGEQQAWFGFAGTPGYLSPEVLRKDPYGKPVDLWACGVILYILLVGYPPFWDEDQHRLYQQIKAGAYDFPSPEWDTVTPEAKDLINKMLTINPSKRITAAEALKHPWISHRSTVASCMHRQETVDCLKK[about 20 residues omitted]VRKQEIIKVTEQLIEAISNGDFESYTKMCDPGMTAFEPEALGNLVEGLDFHRFYFENLWSRNSKPVHTTILNPHIHLMGDESACIAYIRITQYLDAGGIPRTAQSEETRVWHRRDGKWQIVHFHRSGAPSVLPH
notes: CaMKIIα, rat (Rattus norvegicus), […] lacking the linker, […]; also called nlCaMKIIα; source: HEK293, transfected, purified (Strep-Tactin Sepharose, then NTA column)
In the case of B1, the binding result is “binds”.

B2: no-linker rat CaMKIIα I321E holoenzyme (enzyme, rat (Rattus norvegicus))
chain: MATITCTRFTEEYQLFEELGKGAFSVVRRCVKVLAGQEYAAKIINTKKLSARDHQKLEREARICRLLKHPNIVRLHDSISEEGHHYLIFDLVTGGELFEDIVAREYYSEADASHCIQQILEAVLHCHQMGVVHRDLKPENLLLASKLKGAAVKLADFGLAIEVEGEQQAWFGFAGTPGYLSPEVLRKDPYGKPVDLWACGVILYILLVGYPPFWDEDQHRLYQQIKAGAYDFPSPEWDTVTPEAKDLINKMLTINPSKRITAAEALKHPWISHRSTVASCMHRQETVDCLKK[about 20 residues omitted]VRKQEIEKVTEQLIEAISNGDFESYTKMCDPGMTAFEPEALGNLVEGLDFHRFYFENLWSRNSKPVHTTILNPHIHLMGDESACIAYIRITQYLDAGGIPRTAQSEETRVWHRRDGKWQIVHFHRSGAPSVLPH
notes: also called nlCaMKIIα_(I321E); source: HEK293, transfected, purified (Strep-Tactin Sepharose, then NTA column)
As for B2, the binding result is reported as “binds”.
